Two compounds from patent US7737185B2 (Repros Therapeutics Inc., priority 2001, dated 2010) can be followed below.

For this data set the following is noted: for Serum anion gap: day 12 and washout; for Serum glucose: male baboons.

Structures are written as SMILES.

In the case of `CCN(CC)CCOc1ccc(/C(=C(/Cl)c2ccccc2)c2ccccc2)cc1` [Zuclomid, cis-clomiphene, reference compound], the Serum anion gap result is “lower values than the Enclomid group” and the Serum glucose entry is recorded as “within the normal range”.

`CCN(CC)CCOc1ccc(/C(=C(\Cl)c2ccccc2)c2ccccc2)cc1` [Enclomid, trans-clomiphene]: the Serum anion gap result was “raised this parameter towards normal values” and the Serum glucose entry was “no increases with treatment”.
